Values of other authors in US7517693B2, “Method and apparatus for determining a molecular descriptor of absorption for a candidate compound” (North Carolina State University, priority 2002, dated 2009).

Key:
[1] = Table IV study compounds
[2] = Table III calibration compounds, known literature descriptor

Structure (SMILES) | logKo/w [1] | logL^16 (solute gas-hexadecane partition coefficient) ([2]; 25° C.) | α (effective solute H-bond acidity) [2] | β (effective solute H-bond basicity) [2] | π (effective solute dipolarity and polarizability) [2]
c1ccccc1 [Benzene] | 2.13 | – | – | – | –
CCCCOCCCC [Di-n-butyether] | – | 3.924 | 0.00 | 0.45 | 0.25
c1ccc2ccccc2c1 [Naphthalene] | 3.30 | – | – | – | –
